Results from US20030199431A1, “Modified peptide nucleic acid (PNA) molecules” (priority 1999, published 2003).

Experiments:
[1] = test system: E. coli K12; test: Bacterial growth inhibition with PNA 249 (without peptide, FtsZ) and peptide 250, 100% Mueller-Hinton broth (Table 18); format: cell-based, Escherichia coli
[2] = test system: E. coli K12; test: Bacterial growth inhibition with PNA targeted against the LacZ gene, M9 minimal broth with lactose; format: cell-based, Escherichia coli

H-ado-TTC AAA CAT AGT-NH2 was tested, and the Bacterial growth inhibition ([1]; conc. in wells 250 nM, No of bacteria/ml 8) was “− (Lagphase extended less than five times;)”, the Bacterial growth inhibition ([1]; conc. in wells 250 nM, No of bacteria/ml 17) was “− (Lagphase extended less than five times;)” and the Bacterial growth inhibition ([1]; conc. in wells 250 nM, No of bacteria/ml 170) was “− (Lagphase extended less than five times;)”. For the same substance, the Bacterial growth inhibition ([1]; conc. in wells 500 nM, No of bacteria/ml 8) was “− (Lagphase extended less than five times;)”, the Bacterial growth inhibition ([1]; conc. in wells 500 nM, No of bacteria/ml 17) was “− (Lagphase extended less than five times;)” and the Bacterial growth inhibition ([1]; conc. in wells 500 nM, No of bacteria/ml 170) was “− (Lagphase extended less than five times;)”. The Bacterial growth inhibition ([1]; conc. in wells 750 nM, No of bacteria/ml 8) was “− (Lagphase extended less than five times;)”, the Bacterial growth inhibition ([1]; conc. in wells 750 nM, No of bacteria/ml 17) was “− (Lagphase extended less than five times;)” and the Bacterial growth inhibition ([1]; conc. in wells 750 nM, No of bacteria/ml 170) was “− (Lagphase extended less than five times;)”. For the same substance, the Bacterial growth inhibition ([1]; conc. in wells 1000 nM, No of bacteria/ml 8) was “− (Lagphase extended less than five times;)”, the Bacterial growth inhibition ([1]; conc. in wells 1000 nM, No of bacteria/ml 17) was “− (Lagphase extended less than five times;)” and the Bacterial growth inhibition ([1]; conc. in wells 1000 nM, No of bacteria/ml 170) was “− (Lagphase extended less than five times;)”. For the same substance, the Bacterial growth inhibition ([1]; conc. in wells 1500 nM, No of bacteria/ml 8) was “− (Lagphase extended less than five times;)”, the Bacterial growth inhibition ([1]; conc. in wells 1500 nM, No of bacteria/ml 17) was “− (Lagphase extended less than five times;)” and the Bacterial growth inhibition ([1]; conc. in wells 1500 nM, No of bacteria/ml 170) was “− (Lagphase extended less than five times;)”. The Bacterial growth inhibition ([1]; conc. in wells 2000 nM, No of bacteria/ml 8) was “− (Lagphase extended less than five times;)”, the Bacterial growth inhibition ([1]; conc. in wells 2000 nM, No of bacteria/ml 17) was “− (Lagphase extended less than five times;)” and the Bacterial growth inhibition ([1]; conc. in wells 2000 nM, No of bacteria/ml 170) was “− (Lagphase extended less than five times;)”. The Bacterial growth inhibition ([1]; conc. in wells 2500 nM, No of bacteria/ml 8) was “− (Lagphase extended less than five times;)”, the Bacterial growth inhibition ([1]; conc. in wells 2500 nM, No of bacteria/ml 17) was “− (Lagphase extended less than five times;)” and the Bacterial growth inhibition ([1]; conc. in wells 2500 nM, No of bacteria/ml 170) was “− (Lagphase extended less than five times;)”.
For H-KFFKFFKFFK-ado-TTC AAA CAT AGT-NH2, the Bacterial growth inhibition ([2]; PNA 100 nM, 5 × 10^4 bacteria/ml) was “− (Lagphase extended less than five times;)”, the Bacterial growth inhibition ([2]; PNA 100 nM, 5 × 10^5 bacteria/ml, M9 minimal broth with lactose) was “− (Lagphase extended less than five times;)” and the Bacterial growth inhibition ([2]; PNA 300 nM, 5 × 10^4 bacteria/ml) was “− (Lagphase extended less than five times;)”. The Bacterial growth inhibition ([2]; PNA 750 nM, 5 × 10^4 bacteria/ml) was “(+) (Significantly extended lagphase, (more than five times))”, the Bacterial growth inhibition ([2]; PNA 750 nM, 5 × 10^5 bacteria/ml) was “− (Lagphase extended less than five times;)” and the Bacterial growth inhibition ([2]; PNA 1500 nM, 5 × 10^5 bacteria/ml) was “− (Lagphase extended less than five times;)”.
